Experimental data from ChEMBL document CHEMBL1124172 (J Med Chem, 1988).

Legend:
Mus musculus [1] = assay: In vivo antitumor activity against P388 Lymphocytic Leukemia in mice at 16.13 mg/kg expressed as T/C value
Mus musculus [2] = assay: In vivo antitumor activity against P388 Lymphocytic Leukemia measured as Survivors on day 5 at 16.13 mg/kg; 6/6
Mus musculus [3] = assay: In vivo antitumor activity against P388 Lymphocytic Leukemia measured as Survivors on day 5 at 64.5 mg/kg; 5/6
Mus musculus [4] = assay: In vivo antitumor activity against P388 Lymphocytic Leukemia measured as Survivors on day 5 at 129 mg/kg; 6/6
Mus musculus [5] = assay: In vivo antitumor activity against P388 Lymphocytic Leukemia in mice at 32.25 mg/kg expressed as T/C value
Mus musculus [6] = assay: In vivo antitumor activity against P388 Lymphocytic Leukemia in mice at 64.5 mg/kg expressed as T/C value
Mus musculus [7] = assay: In vivo antitumor activity against P388 Lymphocytic Leukemia in mice at 129 mg/kg expressed as T/C value
A204 = assay: In vitro cytotoxicity against human A204 Rhabdomyosarcoma cell line; type: functional, cell-based
Summary of the method: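 A204 human rhabdomyosarcoma soft-agarose colony assay. 10^4 trypsin/EDTA-dissociated cells in 0.3% agarose over a 0.5% agarose base, in DMEM with 10% FCS, at 37 °C and 5% CO2. Compound was applied in an upper medium layer on day 1 for 24 h, then washed out. Colonies >60 µm were counted after 7–9 days by tetrazolium stain and image analysis. Quadruplicates with vehicle controls, at least four concentrations up to 100 or 1000 µg/mL. IC50 from a monoexponential least-squares fit over at least three preparations, mean ± SE.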

Mus musculus [8] = assay: In vivo antitumor activity against P388 Lymphocytic Leukemia measured as Survivors on day 5 at 32.25 mg/kg; 6/6

For CC[C@](O)(C(=O)O[C@H]1CC[N+]2([O-])CC=C(CO)[C@H]12)c1ccccc1 (some centres undefined), the T/C (Mus musculus [1]) was 100%, the Survivors (Mus musculus [2]) was 6 and the Survivors (Mus musculus [3]) was 5. For the same molecule, the Survivors (Mus musculus [4]) was 6, the T/C (Mus musculus [5]) was 106% and the T/C (Mus musculus [6]) was 106%. The T/C (Mus musculus [7]) was 106%, the IC50 (A204) was 9 µg/mL (≈ 27 µM) and the Survivors (Mus musculus [8]) was 6.

In brackets after ≈: the same amount, converted by molar mass.
